# Permeability data for macrocyclic peptides

PAMPA measures passive passage through an artificial lipid membrane. P is given in units of 10^-6 cm/s (from log10 values with two decimals); larger means faster passage.

For CC(C)C[C@@H]1NC(=O)CN(CC2CCCCC2)C(=O)[C@H]2CCCN2C(=O)[C@H](CC(C)C)NC(=O)[C@H](C)N(C)C(=O)[C@H](CC(C)C)NC(=O)CN(CCCOC(C)C)C(=O)[C@H]2CCCN2C(=O)[C@H](Cc2ccccc2)NC(=O)[C@H](C)N(C)C1=O the data give PAMPA 0.087 × 10^-6 cm/s.
For CC(C)C[C@@H]1NC(=O)CN(CC2CCCCC2)C(=O)[C@H]2CCCN2C(=O)[C@H](CC(C)C)NC(=O)[C@H](C)N(C)C(=O)[C@H](CC(C)C)NC(=O)CN(CCCOC(C)C)C(=O)[C@H]2CCCN2C(=O)[C@H](C)NC(=O)[C@H](C)N(C)C1=O the data give PAMPA 0.62 × 10^-6 cm/s.
For CCCCCN1CC(=O)N[C@@H](Cc2ccccc2)C(=O)N2CCC[C@@H]2C(=O)N(C)[C@@H](CC(C)C)C(=O)N[C@@H](C)C(=O)N(CC)CC(=O)N[C@@H](CC(C)C)C(=O)N2CCC[C@@H]2C(=O)N(C)[C@@H](CC(C)C)C(=O)N[C@@H](C)C1=O the data give PAMPA 5 × 10^-6 cm/s.
For CCCCCN1CC(=O)N[C@@H](CC(C)C)C(=O)N(C)[C@@H](C)C(=O)N[C@@H](C)C(=O)N2CCC[C@@H]2C(=O)N(Cc2ccc3c(c2)OCO3)CC(=O)N[C@@H](CC(C)C)C(=O)N(C)[C@@H](C)C(=O)N[C@@H](CC(C)C)C(=O)N2CCC[C@@H]2C1=O the data give PAMPA 0.17 × 10^-6 cm/s.
For CCCCCN1CC(=O)N[C@@H](CC(C)C)C(=O)N(C)[C@@H](C)C(=O)N[C@@H](Cc2ccccc2)C(=O)N2CCC[C@@H]2C(=O)N(CCCOC(C)C)CC(=O)N[C@@H](CC(C)C)C(=O)N(C)[C@@H](C)C(=O)N[C@@H](CC(C)C)C(=O)N2CCC[C@@H]2C1=O the data give PAMPA 0.26 × 10^-6 cm/s.
For CC(C)C[C@@H]1NC(=O)CN(Cc2ccc3c(c2)OCO3)C(=O)[C@H](C)NC(=O)[C@H](CC(C)C)N(C)C(=O)[C@H]2CCCN2C(=O)[C@H](Cc2ccccc2)NC(=O)CN(CC2CCCCC2)C(=O)[C@H](C)NC(=O)[C@H](CC(C)C)N(C)C(=O)[C@H]2CCCN2C1=O the data give PAMPA 1.1 × 10^-6 cm/s.
For CCCCCN1CC(=O)N[C@@H](CC(C)C)C(=O)N(C)[C@@H](C)C(=O)N[C@@H](C)C(=O)N2CCC[C@@H]2C(=O)N(CC)CC(=O)N[C@@H](CC(C)C)C(=O)N(C)[C@@H](C)C(=O)N[C@@H](CC(C)C)C(=O)N2CCC[C@@H]2C1=O the data give PAMPA 2.8 × 10^-6 cm/s.
For CCCCCN1CC(=O)N[C@@H](C)C(=O)N2CCC[C@@H]2C(=O)N(C)[C@@H](CC(C)C)C(=O)N[C@@H](C)C(=O)N(CC)CC(=O)N[C@@H](CC(C)C)C(=O)N2CCC[C@@H]2C(=O)N(C)[C@@H](CC(C)C)C(=O)N[C@@H](C)C1=O the data give PAMPA 0.63 × 10^-6 cm/s.
For CC(C)C[C@@H]1NC(=O)CN(CC2CCOCC2)C(=O)[C@H]2CCCN2C(=O)[C@H](CC(C)C)NC(=O)[C@H](C)N(C)C(=O)[C@H](CC(C)C)NC(=O)CN(CCCOC(C)C)C(=O)[C@H]2CCCN2C(=O)[C@H](C)NC(=O)[C@H](C)N(C)C1=O the data give PAMPA 3.4 × 10^-6 cm/s.
For CC(C)C[C@@H]1NC(=O)CN(Cc2ccc3c(c2)OCO3)C(=O)[C@H](C)NC(=O)[C@H](CC(C)C)N(C)C(=O)[C@H]2CCCN2C(=O)[C@H](C)NC(=O)CN(CC2CCOCC2)C(=O)[C@H](C)NC(=O)[C@H](CC(C)C)N(C)C(=O)[C@H]2CCCN2C1=O the data give PAMPA 0.14 × 10^-6 cm/s.
For CC(C)C[C@@H]1NC(=O)CN(Cc2ccc3c(c2)OCO3)C(=O)[C@H](C)NC(=O)[C@H](CC(C)C)N(C)C(=O)[C@H]2CCCN2C(=O)[C@H](C)NC(=O)CN(CC2CCCCC2)C(=O)[C@H](C)NC(=O)[C@H](CC(C)C)N(C)C(=O)[C@H]2CCCN2C1=O the data give PAMPA 3 × 10^-6 cm/s.
For CCCCCN1CC(=O)N[C@@H](CC(C)C)C(=O)N(C)[C@@H](C)C(=O)N[C@@H](Cc2ccccc2)C(=O)N2CCC[C@@H]2C(=O)N(Cc2ccc3c(c2)OCO3)CC(=O)N[C@@H](CC(C)C)C(=O)N(C)[C@@H](C)C(=O)N[C@@H](CC(C)C)C(=O)N2CCC[C@@H]2C1=O the data give PAMPA 0.063 × 10^-6 cm/s.
For CC(C)C[C@@H]1NC(=O)CN(CCCOC(C)C)C(=O)[C@H](C)NC(=O)[C@H](CC(C)C)N(C)C(=O)[C@H]2CCCN2C(=O)[C@H](Cc2ccccc2)NC(=O)CN(CC2CCOCC2)C(=O)[C@H](C)NC(=O)[C@H](CC(C)C)N(C)C(=O)[C@H]2CCCN2C1=O the data give PAMPA 0.33 × 10^-6 cm/s.
For CC(C)C[C@@H]1NC(=O)CN(CC2CCOCC2)C(=O)[C@H]2CCCN2C(=O)[C@H](CC(C)C)NC(=O)[C@H](C)N(C)C(=O)[C@H](CC(C)C)NC(=O)CN(Cc2ccc3c(c2)OCO3)C(=O)[C@H]2CCCN2C(=O)[C@H](C)NC(=O)[C@H](C)N(C)C1=O the data give PAMPA 1.8 × 10^-6 cm/s.
For CCCCCN1CC(=O)N[C@@H](Cc2ccccc2)C(=O)N2CCC[C@@H]2C(=O)N(C)[C@@H](CC(C)C)C(=O)N[C@@H](C)C(=O)N(Cc2ccc3c(c2)OCO3)CC(=O)N[C@@H](CC(C)C)C(=O)N2CCC[C@@H]2C(=O)N(C)[C@@H](CC(C)C)C(=O)N[C@@H](C)C1=O the data give PAMPA 1.7 × 10^-6 cm/s.
For CCCCCN1CC(=O)N[C@@H](Cc2ccccc2)C(=O)N2CCC[C@@H]2C(=O)N(C)[C@@H](CC(C)C)C(=O)N[C@@H](C)C(=O)N(CCCOC(C)C)CC(=O)N[C@@H](CC(C)C)C(=O)N2CCC[C@@H]2C(=O)N(C)[C@@H](CC(C)C)C(=O)N[C@@H](C)C1=O the data give PAMPA 5 × 10^-6 cm/s.
For CC(C)C[C@@H]1NC(=O)CN(CC2CCOCC2)C(=O)[C@H]2CCCN2C(=O)[C@H](CC(C)C)NC(=O)[C@H](C)N(C)C(=O)[C@H](CC(C)C)NC(=O)CN(Cc2ccc3c(c2)OCO3)C(=O)[C@H]2CCCN2C(=O)[C@H](Cc2ccccc2)NC(=O)[C@H](C)N(C)C1=O the data give PAMPA 0.55 × 10^-6 cm/s.
For CC(C)C[C@@H]1NC(=O)CN(CCCOC(C)C)C(=O)[C@H](C)NC(=O)[C@H](CC(C)C)N(C)C(=O)[C@H]2CCCN2C(=O)[C@H](Cc2ccccc2)NC(=O)CN(CC2CCCCC2)C(=O)[C@H](C)NC(=O)[C@H](CC(C)C)N(C)C(=O)[C@H]2CCCN2C1=O the data give PAMPA 3.6 × 10^-6 cm/s.
For CCCCCN1CC(=O)N[C@@H](CC(C)C)C(=O)N(C)[C@@H](C)C(=O)N[C@@H](Cc2ccccc2)C(=O)N2CCC[C@@H]2C(=O)N(CC)CC(=O)N[C@@H](CC(C)C)C(=O)N(C)[C@@H](C)C(=O)N[C@@H](CC(C)C)C(=O)N2CCC[C@@H]2C1=O the data give PAMPA 0.78 × 10^-6 cm/s.
For CC(C)C[C@@H]1NC(=O)CN(CC2CCOCC2)C(=O)[C@H]2CCCN2C(=O)[C@H](CC(C)C)NC(=O)[C@H](C)N(C)C(=O)[C@H](CC(C)C)NC(=O)CN(CCCOC(C)C)C(=O)[C@H]2CCCN2C(=O)[C@H](Cc2ccccc2)NC(=O)[C@H](C)N(C)C1=O the data give PAMPA 1.9 × 10^-6 cm/s.
For CCCCCN1CC(=O)N[C@@H](C)C(=O)N2CCC[C@@H]2C(=O)N(C)[C@@H](CC(C)C)C(=O)N[C@@H](C)C(=O)N(CCCOC(C)C)CC(=O)N[C@@H](CC(C)C)C(=O)N2CCC[C@@H]2C(=O)N(C)[C@@H](CC(C)C)C(=O)N[C@@H](C)C1=O the data give PAMPA 1.8 × 10^-6 cm/s.
For CCN1CC(=O)N[C@@H](CC(C)C)C(=O)N(C)[C@@H](C)C(=O)N[C@@H](CC(C)C)C(=O)N2CCC[C@@H]2C(=O)N(CC2CCCCC2)CC(=O)N[C@@H](CC(C)C)C(=O)N(C)[C@@H](C)C(=O)N[C@@H](C)C(=O)N2CCC[C@@H]2C1=O the data give PAMPA 1.7 × 10^-6 cm/s.
For CCCCCN1CC(=O)N[C@@H](C)C(=O)N2CCC[C@@H]2C(=O)N(C)[C@@H](CC(C)C)C(=O)N[C@@H](C)C(=O)N(Cc2ccc3c(c2)OCO3)CC(=O)N[C@@H](CC(C)C)C(=O)N2CCC[C@@H]2C(=O)N(C)[C@@H](CC(C)C)C(=O)N[C@@H](C)C1=O the data give PAMPA 2 × 10^-6 cm/s.
For CC(C)C[C@@H]1NC(=O)CN(CCCOC(C)C)C(=O)[C@H](C)NC(=O)[C@H](CC(C)C)N(C)C(=O)[C@H]2CCCN2C(=O)[C@H](C)NC(=O)CN(CC2CCOCC2)C(=O)[C@H](C)NC(=O)[C@H](CC(C)C)N(C)C(=O)[C@H]2CCCN2C1=O the data give PAMPA 0.036 × 10^-6 cm/s.
For CCN1CC(=O)N[C@@H](CC(C)C)C(=O)N2CCC[C@@H]2C(=O)N(C)[C@@H](CC(C)C)C(=O)N[C@@H](C)C(=O)N(CC2CCCCC2)CC(=O)N[C@@H](C)C(=O)N2CCC[C@@H]2C(=O)N(C)[C@@H](CC(C)C)C(=O)N[C@@H](C)C1=O the data give PAMPA 1.5 × 10^-6 cm/s.
For CC(C)C[C@@H]1NC(=O)CN(CC2CCCCC2)C(=O)[C@H]2CCCN2C(=O)[C@H](CC(C)C)NC(=O)[C@H](C)N(C)C(=O)[C@H](CC(C)C)NC(=O)CN(Cc2ccc3c(c2)OCO3)C(=O)[C@H]2CCCN2C(=O)[C@H](C)NC(=O)[C@H](C)N(C)C1=O the data give PAMPA 0.11 × 10^-6 cm/s.
For CCCCCN1CC(=O)N[C@@H](CC(C)C)C(=O)N(C)[C@@H](C)C(=O)N[C@@H](C)C(=O)N2CCC[C@@H]2C(=O)N(CCCOC(C)C)CC(=O)N[C@@H](CC(C)C)C(=O)N(C)[C@@H](C)C(=O)N[C@@H](CC(C)C)C(=O)N2CCC[C@@H]2C1=O the data give PAMPA 0.81 × 10^-6 cm/s.
For CC(C)C[C@@H]1NC(=O)CN(CC2CCCCC2)C(=O)[C@H]2CCCN2C(=O)[C@H](CC(C)C)NC(=O)[C@H](C)N(C)C(=O)[C@H](CC(C)C)NC(=O)CN(Cc2ccc3c(c2)OCO3)C(=O)[C@H]2CCCN2C(=O)[C@H](Cc2ccccc2)NC(=O)[C@H](C)N(C)C1=O the data give PAMPA 0.017 × 10^-6 cm/s.
For CC(C)C[C@@H]1NC(=O)CN(Cc2ccc3c(c2)OCO3)C(=O)[C@H](C)NC(=O)[C@H](CC(C)C)N(C)C(=O)[C@H]2CCCN2C(=O)[C@H](Cc2ccccc2)NC(=O)CN(CC2CCOCC2)C(=O)[C@H](C)NC(=O)[C@H](CC(C)C)N(C)C(=O)[C@H]2CCCN2C1=O the data give PAMPA 0.54 × 10^-6 cm/s.
For CC(C)C[C@@H]1NC(=O)CN(CCCOC(C)C)C(=O)[C@H](C)NC(=O)[C@H](CC(C)C)N(C)C(=O)[C@H]2CCCN2C(=O)[C@H](C)NC(=O)CN(CC2CCCCC2)C(=O)[C@H](C)NC(=O)[C@H](CC(C)C)N(C)C(=O)[C@H]2CCCN2C1=O the data give PAMPA 1.7 × 10^-6 cm/s.

Again, the 3 entries with the lowest PAMPA:

For CC(C)C[C@@H]1NC(=O)CN(CC2CCCCC2)C(=O)[C@H]2CCCN2C(=O)[C@H](CC(C)C)NC(=O)[C@H](C)N(C)C(=O)[C@H](CC(C)C)NC(=O)CN(Cc2ccc3c(c2)OCO3)C(=O)[C@H]2CCCN2C(=O)[C@H](Cc2ccccc2)NC(=O)[C@H](C)N(C)C1=O the data give PAMPA 0.017 × 10^-6 cm/s.
For CC(C)C[C@@H]1NC(=O)CN(CCCOC(C)C)C(=O)[C@H](C)NC(=O)[C@H](CC(C)C)N(C)C(=O)[C@H]2CCCN2C(=O)[C@H](C)NC(=O)CN(CC2CCOCC2)C(=O)[C@H](C)NC(=O)[C@H](CC(C)C)N(C)C(=O)[C@H]2CCCN2C1=O the data give PAMPA 0.036 × 10^-6 cm/s.
For CCCCCN1CC(=O)N[C@@H](CC(C)C)C(=O)N(C)[C@@H](C)C(=O)N[C@@H](Cc2ccccc2)C(=O)N2CCC[C@@H]2C(=O)N(Cc2ccc3c(c2)OCO3)CC(=O)N[C@@H](CC(C)C)C(=O)N(C)[C@@H](C)C(=O)N[C@@H](CC(C)C)C(=O)N2CCC[C@@H]2C1=O the data give PAMPA 0.063 × 10^-6 cm/s.

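Conditions beyond the assay type are not listed; see the original paper. The list need not hold all peptides of the study. Peptides that the database sets to -10, its floor, are left out.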

Data: CycPeptMPDB; original report Furukawa et al. 2020, doi:10.1002/anie.202004550.